One test addresses PIK3CB (UniProt P42338). Briefly: Inhibition of PIK3CB Kinase Activity.
Another test concerns the target PIK3CG (UniProt P48736). Briefly: Inhibition of PIK3CG Kinase Activity.

Chains of the proteins cited; added tags and fusions are not shown. Lines headed by an entry give the natural chain unless they say otherwise; changes in a name come on top.
UniProt P42338: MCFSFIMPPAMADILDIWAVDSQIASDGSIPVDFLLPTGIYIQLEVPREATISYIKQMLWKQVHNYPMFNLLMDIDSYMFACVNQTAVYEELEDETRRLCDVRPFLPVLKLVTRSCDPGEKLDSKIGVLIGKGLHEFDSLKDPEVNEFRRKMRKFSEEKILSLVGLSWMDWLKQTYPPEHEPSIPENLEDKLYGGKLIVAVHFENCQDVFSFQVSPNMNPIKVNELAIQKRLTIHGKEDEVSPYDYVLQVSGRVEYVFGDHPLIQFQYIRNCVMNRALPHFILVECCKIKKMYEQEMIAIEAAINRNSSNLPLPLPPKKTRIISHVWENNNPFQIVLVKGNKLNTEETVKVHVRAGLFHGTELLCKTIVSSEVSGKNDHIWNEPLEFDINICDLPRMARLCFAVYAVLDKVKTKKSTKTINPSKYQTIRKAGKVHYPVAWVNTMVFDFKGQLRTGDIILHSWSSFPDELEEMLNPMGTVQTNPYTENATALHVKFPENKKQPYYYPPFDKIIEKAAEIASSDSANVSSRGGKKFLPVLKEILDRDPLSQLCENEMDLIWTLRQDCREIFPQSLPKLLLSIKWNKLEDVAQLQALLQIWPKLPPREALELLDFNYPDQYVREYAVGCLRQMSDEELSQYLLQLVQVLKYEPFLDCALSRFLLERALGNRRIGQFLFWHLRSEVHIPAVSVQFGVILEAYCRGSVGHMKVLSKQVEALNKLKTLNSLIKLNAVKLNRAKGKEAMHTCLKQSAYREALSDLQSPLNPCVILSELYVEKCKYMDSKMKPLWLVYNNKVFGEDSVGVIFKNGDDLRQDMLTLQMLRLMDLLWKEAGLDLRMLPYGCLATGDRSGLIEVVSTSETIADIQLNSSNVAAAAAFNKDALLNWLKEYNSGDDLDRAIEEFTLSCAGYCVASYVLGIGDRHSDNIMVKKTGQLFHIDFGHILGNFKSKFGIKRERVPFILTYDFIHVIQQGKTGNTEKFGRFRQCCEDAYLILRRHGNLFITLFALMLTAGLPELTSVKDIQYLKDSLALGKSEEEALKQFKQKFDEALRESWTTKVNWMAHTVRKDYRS
UniProt P48736: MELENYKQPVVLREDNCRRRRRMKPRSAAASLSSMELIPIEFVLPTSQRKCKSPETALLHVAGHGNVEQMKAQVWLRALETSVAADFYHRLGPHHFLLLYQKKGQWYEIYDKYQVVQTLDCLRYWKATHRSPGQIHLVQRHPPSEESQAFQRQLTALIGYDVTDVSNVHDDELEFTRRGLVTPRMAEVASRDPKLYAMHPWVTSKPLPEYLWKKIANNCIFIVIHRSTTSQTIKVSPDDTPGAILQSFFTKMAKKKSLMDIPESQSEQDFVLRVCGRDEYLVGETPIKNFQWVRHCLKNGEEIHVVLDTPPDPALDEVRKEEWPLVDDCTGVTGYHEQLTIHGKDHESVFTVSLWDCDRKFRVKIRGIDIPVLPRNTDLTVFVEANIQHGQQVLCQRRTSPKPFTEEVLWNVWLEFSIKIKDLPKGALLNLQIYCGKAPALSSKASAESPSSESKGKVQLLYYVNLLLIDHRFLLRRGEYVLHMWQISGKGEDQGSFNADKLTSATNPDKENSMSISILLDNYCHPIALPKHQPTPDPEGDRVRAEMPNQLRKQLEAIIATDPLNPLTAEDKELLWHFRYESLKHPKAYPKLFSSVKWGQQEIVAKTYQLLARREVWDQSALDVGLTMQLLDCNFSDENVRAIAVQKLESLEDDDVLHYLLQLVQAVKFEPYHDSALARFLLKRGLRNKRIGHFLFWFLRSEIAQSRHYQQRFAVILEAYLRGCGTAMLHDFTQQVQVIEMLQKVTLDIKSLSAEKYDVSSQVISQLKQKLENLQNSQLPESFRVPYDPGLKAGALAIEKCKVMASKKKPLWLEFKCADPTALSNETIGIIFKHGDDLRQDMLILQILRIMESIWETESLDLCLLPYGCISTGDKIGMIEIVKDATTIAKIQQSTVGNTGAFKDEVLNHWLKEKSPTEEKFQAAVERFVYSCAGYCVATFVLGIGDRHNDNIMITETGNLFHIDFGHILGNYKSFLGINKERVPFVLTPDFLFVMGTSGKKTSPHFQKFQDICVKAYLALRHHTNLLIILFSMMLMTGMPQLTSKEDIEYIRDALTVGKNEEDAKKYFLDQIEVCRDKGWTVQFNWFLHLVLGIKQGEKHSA

As usually defined, the IC50 is the point on the concentration scale where inhibition reaches its midpoint. A higher IC50 goes with a need for much substance. For `O=c1cc(N2CCOCC2)oc2c(-c3ccccc3)cccc12`, the results for the 50% inhibitory concentration (IC50) against PIK3CB and on PIK3CG were 340 nM and 1600 nM, respectively.
